Ab-91 heavy chain CDR variants: yeast mating affinities

The measurements come from Engelhart et al. 2022 (doi:10.1038/s41597-022-01779-4) through the FLAb antibody collection.

Target peptide (SARS-CoV-2 spike, HR2 region): PDVDLGDISGINAS

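The parent was found by panning a naive human phage display library on the peptide. Variants in AAYL51 differ from the parent at up to three CDR positions; double and triple changes were sampled at random. The assay is AlphaSeq: two haploid yeast populations carry antibody and antigen on their surface. Binding brings cells together so that they mate, and sequencing counts the barcode pairs among the diploids. Read counts were normalised to the haploid input and turned into Kd by a linear fit to BCL2-family pairs of known affinity, for each replicate. Mating was done three times.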

Ab-91 is the parent antibody, in scFv form: VL, then three GGGGS repeats, then VH. The light chain is unchanged in all variants.
VL: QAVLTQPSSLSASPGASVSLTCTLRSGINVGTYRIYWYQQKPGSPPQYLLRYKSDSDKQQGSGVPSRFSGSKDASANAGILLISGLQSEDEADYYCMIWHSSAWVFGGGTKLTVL
VH: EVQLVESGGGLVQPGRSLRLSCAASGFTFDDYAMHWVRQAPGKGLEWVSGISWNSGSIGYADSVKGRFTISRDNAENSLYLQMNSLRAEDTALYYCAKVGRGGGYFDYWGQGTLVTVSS

Positions count from residue 1 of the parent VH; T28A puts A in place of T.
Every variant below is changed at S55 of the VH (sequential numbering).
The read-out is the apparent dissociation constant on a log10 scale (nM): the lower, the stronger.
Replicates are averaged; those with no signal do not enter the mean.
"nd" means that the variant was in the library but no mating with the target was seen in that replicate; the authors take this as a sign of poor binding, and no number exists.
The list is sorted by this average, lowest first, undetected variants last.

Variant T28A+S55E+G104M showed 2.06, 1.72, 1.98 (mean 1.92).
Variant T28V+S55M showed 2.52, 2.82, 2.62 (mean 2.65).
Variant I51L+S55A showed 2.70, 3.14, nd (mean 2.92).
Variant S55I+G103L showed 3.18, nd, 3.07 (mean 3.12).
Variant S55I+S63V+G103E showed nd, nd, 3.22.
Variant I51F+S55W+K65S showed 3.59, nd, nd.
Variant S55L+V64S+G104T showed 4.44, nd, nd.
Variant S52P+S55I+S57T showed 4.49, nd, nd.
Variant M34P+N54A+S55R showed nd, 4.52, nd.
Variant S55I showed nd, 4.74, nd.
Variant T28P+S55Q+G59N showed 5.34, 4.43, nd (mean 4.88).
Variant A33S+I51Y+S55E showed 4.43, 6.62, 4.74 (mean 5.26).
Variant G50Y+S55T+G104I showed 4.82, 5.71, 5.55 (mean 5.36).
Variant Y32N+S55K+D62E showed 4.39, 6.82, 5.29 (mean 5.50).
Variant N54D+S55W+S57T showed nd, nd, nd.
Variant S55K+G59C+D107C showed nd, nd, nd.
Variant S55T showed nd, nd, nd.
Variant S55A+G59L+R101M showed nd, nd, nd.
Variant S55D+D62M+V99N showed nd, nd, nd.
Variant S55I+V64E+Y105W showed nd, nd, nd.

From the list, the first 2 with no signal in any replicate:

N54D+S55W+S57T: nd, nd, nd.
S55K+G59C+D107C: nd, nd, nd.

In this assay the parent's reference entry averaged 1.86; its copy inside this library read 0.88.
Empty control strains, which show no peptide, gave a signal in 21% of pairings with library AAYL51; the median was 4.54 and 95% of these signals were weaker than 3.26. No background was subtracted.